Experimental data reported in patent US6632456B1, “Compositions for inhalation” (AstraZeneca AB, priority 1994, dated 2003).

Test system: CaCo-2 epithelial cell monolayer
Assay: CaCo-2 epithelial cell monolayer transport assay
Assay type: in vitro ADME
Settings: CaCo-2, 16 mM sodium caprate, compared to absence of any enhancer
Procedure: A standard in vitro assay utilizing an epithelial cell line, CaCo-2 (available through the American Type Culture Collection (ATCC), Rockville, Md., USA), has been developed to assess the ability of various enhancer compounds to promote transport of markers across an epithelial cell monolayer, as a model for the epithelial cell layer which functions in the lung to separate the alveolus from the pulmonary blood supply.
In this assay, the enhancer and polypeptide or other marker are dissolved in aqueous solution at various proportions and/or concentrations, and applied to the apical side of the cell monolayer. After 60 min incubation at 37° C. and 95% RH (relative humidity), the amount of the marker on the basolateral side of the cells is determined, e.g., by use of a radioactively labelled marker.

Substance	amount of insulin which passed across the monolayer	amount of vasopressin absorbed across the monolayer, increase
insulin	doubled	–
vasopressin	–	10-15 times
